# Laboratory results published in publication PMC4019984, “Kinase and channel activity of TRPM6 are co-ordinated by a dimerization motif and pocket interaction” (Biochemical Journal, 2014).
# Assays:
# [1] = biological target: T1, GST-tagged TRPM6-(1730–end) (Homo sapiens, UniProt Q9BX84); test: Fluorescence polarization binding assay, TRPM6-(1730–end); conditions: 100 nM labelled peptide, pH 7.5, room temperature
# T1 construct: E. coli-purified GST-tagged TRPM6-(1730–end); made in house; host or cells: E. coli BL21
# T1 sequence (Q9BX84 1730-2022 limits assumed): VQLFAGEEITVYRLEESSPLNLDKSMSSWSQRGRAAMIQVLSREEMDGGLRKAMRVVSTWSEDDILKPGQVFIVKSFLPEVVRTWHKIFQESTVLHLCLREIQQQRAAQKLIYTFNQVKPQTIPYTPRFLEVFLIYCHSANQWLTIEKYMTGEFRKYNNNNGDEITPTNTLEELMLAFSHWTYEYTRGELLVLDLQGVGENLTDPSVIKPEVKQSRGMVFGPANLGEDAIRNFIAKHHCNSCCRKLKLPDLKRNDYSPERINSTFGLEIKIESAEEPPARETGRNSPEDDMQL
# Procedure: (§1) The peptides used for the assay contained a C-terminal linker leading to the peptides […] (wild-type) and […] (mutant). The peptides were labelled with Lumio Green (Invitrogen) following the manufacturer's protocol. Fluorescence polarization measurements were performed at room temperature in buffer containing 25 mM Tris/HCl (pH 7.5), 200 mM NaCl and 5 mM 2-mercaptoethanol. Binding assays were performed by combining 100 nM labelled peptide with increasing concentrations of TRPM6 kinase, in a total volume of 30 μl of buffer, and end-point polarization measurements were made using the BMG PheraStar plate reader. The polarization values were measured at an excitation wavelength of 485 nm and an emission wavelength of 538 nm, and were corrected for fluorescent probe alone. At least ten data points were measured for each curve, and each data point was measured in duplicate. Data were analysed using GraphPad Prism 5 and curve-fitting of the data from two independent experiments was performed with one-site specific binding with Hill slope [model Y=BmaxX^h/(Kd^h+X^h)] to determine Kd values.
# (Figure 2A). We next utilized fluorescence polarization technology, a sensitive method to evaluate interactions between proteins and peptides. […]
# [2] = system: GST-tagged TRPM6-(1730–end) L1743A; test: Fluorescence polarization binding assay, L1743A mutant; design: species or system human; conditions: 100 nM labelled peptide, L1743A dimerization pocket mutant, pH 7.5, room temperature
# Procedure: as §1, with “values. […]” for “values.”
# (§2) Figure 3 Analysis of the dimerization pocket residues (A) Structural model of TRPM6 based on TRPM7 α-kinase depicting the binding of Leu^1718 and Leu^1721 to other residues in the α-kinase domain. […] The samples were analysed by immunoblotting with anti-GST antibody (top panel). […]
# [3] = system: GST-tagged TRPM6-(1730–end) L1919Q; test: Fluorescence polarization binding assay, L1919Q mutant; design: species or system human; conditions: 100 nM labelled peptide, L1919Q dimerization pocket mutant, pH 7.5, room temperature
# Procedure: as §1, with “values. […]” for “values.”
# as §2
smiles,measurement,setting,value
CC[C@H](C)[C@H](NC(=O)[C@H](C)NC(=O)[C@H](CO)NC(=O)[C@H](Cc1ccc(O)cc1)NC(=O)[C@H](Cc1c[nH]cn1)NC(=O)[C@H](Cc1c[nH]cn1)NC(=O)[C@H](Cc1c[nH]cn1)NC(=O)[C@@H]1CCCN1C(=O)[C@H](CCC(=O)O)NC(=O)[C@H](CCC(N)=O)NC(=O)[C@@H]1CCCN1C(=O)[C@H](CO)NC(=O)[C@H](CCCCN)NC(=O)[C@@H](N)CC(C)C)C(=O)N[C@@H](CCC(=O)O)C(=O)N[C@@H](CCCNC(=N)N)C(=O)N[C@@H](CC(N)=O)C(=O)N[C@@H](CC(N)=O)C(=O)N[C@@H](CC(C)C)C(=O)N[C@@H](CCSC)C(=O)N[C@@H](CCCNC(=N)N)C(=O)N[C@@H](CC(C)C)C(=O)N[C@@H](CO)C(=O)N[C@@H](CCC(N)=O)C(=O)N[C@H](C(=O)N[C@H](C(=O)N1CCC[C@H]1C(=O)N[C@@H](Cc1ccccc1)C(=O)N[C@H](C(=O)N1CCC[C@H]1C(=O)N[C@H](C(=O)N[C@@H](CCC(N)=O)C(=O)N[C@@H](CC(C)C)C(=O)N[C@@H](Cc1ccccc1)C(=O)N[C@@H](C)C(=O)NCC(=O)N[C@@H](CCC(=O)O)C(=O)N[C@@H](CCC(=O)O)C(=O)N[C@H](C(=O)N[C@H](C(=O)N[C@H](C(=O)NCC(=O)NCC(=O)N[C@H]1CS[As]2SC[C@H](NC1=O)C(=O)N1CCC[C@H]1C(=O)NCC(=O)N[C@H]1CS[As](SC[C@@H](C(=O)O)NC1=O)c1c(O)ccc3c1Oc1c(ccc(O)c12)C31OC(=O)c2ccccc21)C(C)C)[C@@H](C)O)[C@@H](C)CC)C(C)C)[C@@H](C)O)[C@@H](C)CC)[C@@H](C)O (stereo partly shown),fluorescence polarization increase (binding),[1]; increasing concentrations of TRPM6-(1730–end),dose-dependent increase in fluorescence polarization
same,Hill slope,"[1]; variable slope model, one-site-binding equation",1.0
same,interaction with fluorescently labelled dimerization motif peptide,[2],inhibited interaction
same,interaction with fluorescently labelled dimerization motif peptide,[3],inhibited interaction
